How the values of this data set were obtained:
The procedure used is summarized below.
Female New Zealand Albino rabbits were sacrificed by first anaesthetizing with ketamine (30 mg/Kg) and xylazine (6 mg/Kg) followed by an injection of an overdose of […]* (sodium pentobarbital, 1 ml of a 26% solution) into the marginal ear vein. The intact eyes, along with the lids and conjunctival sacs were then enucleated and immediately stored in about 70 ml of fresh BSS PLUS® irrigation solution saturated with O2/CO2 (95:5).
To accomplish this, the exposed cornea of the enucleated eye was carefully placed on a corneal holder, which maintained the cornea curvature and held the eye in place. Various tissues of the eye were dissected leaving the cornea, a small ring of scleral tissue, and the palpebral conjunctiva. […]
Samples (150 μL) were withdrawn from the receiving chamber every 30 minutes over a five hour period, and an equal volume of irrigating solution was immediately added to the receiving chamber to maintain a constant volume. The concentration of fluoroquinolones in the samples was determined using reverse-phase HPLC. […] The mobile phase (acetonitrile:phosphate buffer v/v) and UV detection wavelengths for each of the fluoroquinolones was determined beforehand. […]
The rate of drug accumulation in the receiving (endothelial) chamber, and the apparent Permeability Coefficients (Papp) of the fluoroquinolones were then calculated as follows: […]

In the case of moxifloxacin [reference compound], the “MEAN PERMEABILITY COEFFICIENT” value was 11.7 ×10⁻⁶ cm/s.

These data come from US20120108557A1, “FLUOROQUINOLONE DERIVATIVES FOR OPHTHALMIC APPLICATIONS” (ALCON RESEARCH, LTD., priority 2008, published 2012).
